The target in assay [1] is Higher affinity class of cell surface receptors for MIF on IFNγ-activated THP-1 monocytes. The assay can be described thus: flow cytometry, Scatchard analysis, Alexa-MIF on IFNγ-treated THP-1 cells at 4° C.
The target of assay [2] is Lower affinity class of cell surface receptors for MIF on IFNγ-activated THP-1 monocytes. The description is as above.
For assay [3], the target named is Higher affinity class of cell surface receptors for MIF on IFNγ-activated THP-1 monocytes. Kind of assay: flow cytometry, Scatchard analysis, Alexa-MIF (0-1.5 µM as trimer) on IFNγ-treated THP-1 cells at 4° C. Background: A flow cytometer gives signals particle by particle.
The target in assay [4] is Lower affinity class of cell surface receptors for MIF on IFNγ-activated THP-1 monocytes. The assay is described as above.

B1: Alexa 488-MIF conjugate (human recombinant MIF conjugated to Alexa 488) (ligand, UniProt P14174 2-115, looked up)
chain: PMFIVNTNVPRASVPDGFLSELTQQLAQATGKPPQYIAVHVVPDQLMAFGGSSEPCALCSLHSIGKIGGAQNRSYSKLLCGLLAERLRISPDRVYINYYDMNAANVGWNNSTFA
modifications: Alexa 488 dye conjugated; average ratio of dye ligand to MIF homotrimer was 1:3; site of attachment not stated
By Kd is commonly meant the concentration at which binding is half-saturated. On to B1, for which the binding sites per cell (binding sites per cell) in assay [1] stood at 31000. Further, in assay [2], the sites per cell (sites per cell) is 49000. Also, the Kd in assay [3] stood at 37 nM; in assay [4] it was 350 nM.
